From patent US7919623B2, “Naphthyridine derivatives having inhibitory activity against HIV integrase” (Shionogi & Co., Ltd., priority 2004, dated 2011)

Target: HIV integrase (Human immunodeficiency virus type 1 group M subtype B, UniProt P04585)
Assay: biochemical

| SMILES | IC50 |
| --- | --- |
| COCCNC(=O)c1nc(C(=O)OCCOC)c2cc(Cc3ccc(F)cc3)cnc2c1O [Example A-5, 3-(4-fluorobenzyl)-8-hydroxy-7-(2-methoxyethylcarbamoyl)[1,6]naphthyridine-5-carboxylic acid 2-methoxyethyl ester] | 9.84 nM |
| COCCNC(=O)c1nc(C(=O)OC2CCN(C(C)=O)CC2)c2cc(Cc3ccc(F)cc3)cnc2c1O [Example A-6, 3-(4-fluorobenzyl)-8-hydroxy-7-(2-methoxyethylcarbamoyl)[1,6]naphthyridine-5-carboxylic acid 1-acetylpiperidine-4-yl ester] | 10.7 nM |
| COCCNC(=O)c1nc(NC(=O)C(=O)NOC)c2cc(Cc3ccc(F)cc3)cnc2c1O [Example A-9, N-[3-(4-fluorobenzyl)-8-hydroxy-7-(2-methoxyethylcarbamoyl)[1,6]naphthyridine-5-yl]-N′-methoxy oxalamide] | 127 nM |
| CONC(=O)C(=O)Nc1nc(C(=O)NN(C)C)c(O)c2ncc(Cc3ccc(F)cc3)cc12 [Example A-10, N-[7-(N′,N′-dimethylhydrazinocarbonyl)-3-(4-fluorobenzyl)-8-hydroxy[1,6]naphthyridine-5-yl]-N′-methoxy oxalamide] | 149 nM |
| COCCNC(=O)C(=O)Nc1nc(C(=O)NN(C)C)c(O)c2ncc(Cc3ccc(F)cc3)cc12 [Example B-25, N-[7-(N′,N′-dimethylhydrazinocarbonyl)-3-(4-fluorobenzyl)-8-hydroxy[1,6]naphthyridine-5-yl]-N′-(2-methoxyethyl)oxalamide] | 39.2 nM |
| CN(C)NC(=O)c1nc(NC(=O)C(=O)N(C)C)c2cc(Cc3ccc(F)cc3)cnc2c1O [Example B-26, N-[7-(N′,dimethylhydrazinocarbonyl)-3-(4-fluorobenzyl)-8-hydroxy[1,6]naphthyridine-5-yl]-N′,N′-dimethyl oxalamide] | 39.6 nM |
| CNC(=O)C(=O)Nc1nc(C(=O)NCCO)c(O)c2ncc(Cc3ccc(F)cc3)cc12 [Example B-27, N-[3-(4-fluorobenzyl)-8-hydroxy-7-(2-hydroxyethylcarbamoyl)[1,6]naphthyridine-5-yl]-N′-methyl oxalamide] | 40.8 nM |
| CNC(=O)C(=O)Nc1nc(C(=O)NC(C)CO)c(O)c2ncc(Cc3ccc(F)cc3)cc12 (stereo not drawn) [Example B-28, N-[3-(4-fluorobenzyl)-8-hydroxy-7-(2-hydroxy-1-methylethylcarbamoyl)[1,6]naphthyridine-5-yl]-N′-methyl oxalamide] | 46.1 nM |
| CNC(=O)C(=O)Nc1nc(C(=O)NCCCN(C)C)c(O)c2ncc(Cc3ccc(F)cc3)cc12 [Example B-29, N-[7-(3-dimethylaminopropylcarbamoyl)-3-(4-fluorobenzyl)-8-hydroxy[1,6]naphthyridine-5-yl]-N′-methyl oxalamide] | 51.8 nM |
